Reference: ChEMBL document CHEMBL3616411, “Discovery of 1-hydroxypyridine-2-thiones as selective histone deacetylase inhibitors and their potential application for treating leukemia” (Bioorg Med Chem Lett, 2015)

Chains of the proteins cited; added tags and fusions are not shown. Lines headed by an entry give the natural chain unless they say otherwise; changes in a name come on top.
UniProt Q9UQL6: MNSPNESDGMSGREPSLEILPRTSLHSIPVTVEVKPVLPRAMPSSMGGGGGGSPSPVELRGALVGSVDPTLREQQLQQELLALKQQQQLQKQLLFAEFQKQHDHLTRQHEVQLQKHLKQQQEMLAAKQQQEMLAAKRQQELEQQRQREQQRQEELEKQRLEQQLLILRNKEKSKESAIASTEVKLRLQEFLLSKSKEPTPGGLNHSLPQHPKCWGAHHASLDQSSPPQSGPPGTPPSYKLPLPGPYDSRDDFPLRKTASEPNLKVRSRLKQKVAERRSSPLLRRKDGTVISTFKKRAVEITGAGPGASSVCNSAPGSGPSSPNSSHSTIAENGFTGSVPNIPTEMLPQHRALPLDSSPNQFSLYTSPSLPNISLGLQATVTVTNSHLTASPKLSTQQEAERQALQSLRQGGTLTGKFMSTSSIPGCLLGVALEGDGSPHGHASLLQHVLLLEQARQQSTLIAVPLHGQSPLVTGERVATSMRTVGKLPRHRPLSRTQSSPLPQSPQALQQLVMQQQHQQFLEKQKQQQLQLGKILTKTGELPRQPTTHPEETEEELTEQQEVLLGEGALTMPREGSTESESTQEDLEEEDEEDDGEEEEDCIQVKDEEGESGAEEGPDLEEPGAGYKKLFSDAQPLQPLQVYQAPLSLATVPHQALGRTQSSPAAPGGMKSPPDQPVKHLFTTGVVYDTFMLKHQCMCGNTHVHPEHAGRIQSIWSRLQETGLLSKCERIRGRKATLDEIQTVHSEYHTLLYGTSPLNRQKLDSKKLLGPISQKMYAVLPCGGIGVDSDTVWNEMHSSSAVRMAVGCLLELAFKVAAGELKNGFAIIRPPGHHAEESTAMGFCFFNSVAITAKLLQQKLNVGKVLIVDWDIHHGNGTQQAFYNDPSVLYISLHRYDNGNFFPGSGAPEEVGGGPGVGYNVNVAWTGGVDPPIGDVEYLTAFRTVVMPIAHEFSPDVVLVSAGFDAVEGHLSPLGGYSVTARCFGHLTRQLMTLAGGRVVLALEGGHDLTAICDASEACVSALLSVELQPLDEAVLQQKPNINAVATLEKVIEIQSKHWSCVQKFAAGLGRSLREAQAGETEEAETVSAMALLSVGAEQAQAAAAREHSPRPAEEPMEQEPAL
UniProt Q9UKV0: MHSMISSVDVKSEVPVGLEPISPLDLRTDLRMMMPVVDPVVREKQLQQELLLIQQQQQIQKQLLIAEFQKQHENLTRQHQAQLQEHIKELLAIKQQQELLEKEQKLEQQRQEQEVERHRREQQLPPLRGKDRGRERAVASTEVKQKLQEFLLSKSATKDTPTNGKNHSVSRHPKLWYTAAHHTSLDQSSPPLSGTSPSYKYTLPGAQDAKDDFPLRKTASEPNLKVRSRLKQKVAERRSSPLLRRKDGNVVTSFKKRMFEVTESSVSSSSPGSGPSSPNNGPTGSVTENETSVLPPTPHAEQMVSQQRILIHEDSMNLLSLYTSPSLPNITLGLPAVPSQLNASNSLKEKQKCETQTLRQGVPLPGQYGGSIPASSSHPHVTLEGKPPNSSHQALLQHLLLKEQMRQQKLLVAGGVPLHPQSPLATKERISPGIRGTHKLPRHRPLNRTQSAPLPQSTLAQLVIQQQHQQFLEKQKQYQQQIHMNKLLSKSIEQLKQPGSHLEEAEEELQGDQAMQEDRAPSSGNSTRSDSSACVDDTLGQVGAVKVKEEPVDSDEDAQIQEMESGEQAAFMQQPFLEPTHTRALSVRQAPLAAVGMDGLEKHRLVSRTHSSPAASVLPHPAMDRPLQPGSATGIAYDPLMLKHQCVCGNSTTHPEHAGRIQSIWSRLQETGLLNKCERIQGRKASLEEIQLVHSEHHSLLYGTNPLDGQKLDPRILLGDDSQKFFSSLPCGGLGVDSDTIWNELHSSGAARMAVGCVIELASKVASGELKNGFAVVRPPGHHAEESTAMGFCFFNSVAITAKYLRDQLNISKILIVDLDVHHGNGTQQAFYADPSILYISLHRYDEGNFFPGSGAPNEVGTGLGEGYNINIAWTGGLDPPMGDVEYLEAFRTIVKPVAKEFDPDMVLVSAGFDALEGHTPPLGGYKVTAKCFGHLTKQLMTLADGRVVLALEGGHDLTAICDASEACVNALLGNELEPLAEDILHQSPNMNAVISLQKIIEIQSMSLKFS

Key:
Histone deacetylase 5 = Histone deacetylase 5 (Homo sapiens, UniProt Q9UQL6); experiment: Inhibition of HDAC5 (unknown origin) using Boc-Lys(trifluoroacetyl)-AMC fluorogenic acetylated peptide substrate by fluorometric assay
Histone deacetylase 9 = Histone deacetylase 9 (Homo sapiens, UniProt Q9UKV0); experiment: Inhibition of HDAC9 (unknown origin) using Boc-Lys(trifluoroacetyl)-AMC fluorogenic acetylated peptide substrate by fluorometric assay

IC50 (Histone deacetylase 5): 1.4 µM
IC50 (Histone deacetylase 9): 5 µM
SMILES: CC(/C=C/C(=O)NO)=C\[C@@H](C)C(=O)c1ccc(N(C)C)cc1 [TRICHOSTATIN]
